# AlphaSeq binding of Ab-14 light chain variants to a spike HR2 peptide

Values reported by Engelhart et al. 2022, doi:10.1038/s41597-022-01779-4 (FLAb copy).

Target peptide (SARS-CoV-2 spike, HR2 region): PDVDLGDISGINAS

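The parent was found by panning a naive human phage display library on the peptide. The library (AAYL50) carries one to three amino acid substitutions per variant, with no insertions or deletions. AlphaSeq pools MATa yeast showing the antibodies with MATalpha yeast showing the peptide. After mating in shaken culture at 30 °C for 16 h, diploids were selected and their barcode pairs sequenced. Each replicate has its own calibration line, from reference interactions of the BCL2 family. Each pool was mated in three replicate cultures.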

Parent: Ab-14, a human scFv built as VH, three GGGGS repeats, VL. Only the CDRs of the light chain vary.
VH: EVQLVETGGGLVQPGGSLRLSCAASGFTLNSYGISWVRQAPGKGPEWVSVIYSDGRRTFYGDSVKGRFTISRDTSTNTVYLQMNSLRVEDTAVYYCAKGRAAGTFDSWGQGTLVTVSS
VL: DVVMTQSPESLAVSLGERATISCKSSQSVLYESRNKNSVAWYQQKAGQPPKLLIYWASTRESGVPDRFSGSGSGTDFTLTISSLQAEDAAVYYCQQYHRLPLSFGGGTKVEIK

Variants are written as CDR1, CDR2 and CDR3 of the light chain (limits as in the source). Parent: KSSQSVLYESRNKNSVA, WASTRES, QQYHRLPLS. Affinities are written as log10 Kd with Kd in nM; a lower number is a better binder. Averages over replicates are reported, and they cover detected replicates only. An entry "no signal" has no value in the source: the pair was not observed among the diploids in any replicate. This suggests poor binding but is not conclusive. For reference, the parent read 0.65 as the reference entry and 1.68 as a member of this library.

CDR-L1,CDR-L2,CDR-L3,"mean, log10 nM",detected,signal with controls
KSSQSVLYESRNKKSVA,WAATRES,QQYHRLPLP,no signal,0/3,0/9
KSSQSVAYESRNKRSVA,WASTRES,QWYHRLPLS,4.56,3/3,7/9
KSSQSVLYESRNKNDVA,WWSTRES,QQYHYLPLS,no signal,0/3,0/9
KSSQSVLYESQNNNSVA,CASTRES,QQYHRLPLS,1.36,3/3,0/9
KSSQGVMYESRNKNSVA,WASTRES,QQYHFLPLS,0.81,3/3,4/9
KSSQSVLLESRNKNVVA,WASTRES,QVYHRLPLS,5.40,3/3,3/9
KSSQEVLYESRNKNSVA,WPSTRES,QLYHRLPLS,no signal,0/3,0/9
KSSQSVLYELRNKNSVG,WASTIES,QQYHRLPLS,3.38,1/3,1/9
KSSQSVLYESRNQNSVA,WASTREH,QQEHRLPLS,no signal,0/3,2/9
KSSQSVLYESRNKNSVA,WGSTRLS,QQYHRLFLS,2.67,3/3,1/9
KSSQSVLYESRNKNSVA,FASTRES,QQCHRLTLS,1.27,3/3,0/9
KSSSSVLHESRNKNSVA,WASTRES,QQGHRLPLS,2.60,3/3,5/9
KSSQSVLYESGNKNSMA,WASTRES,QQYHRLPLF,1.56,3/3,2/9
KSSQSVLYESRNYNSVA,WASERES,QQYHRLPLY,2.82,3/3,0/9
KSSQSVLYESRNFADVA,WASTRES,QQYHRLPLS,1.14,3/3,1/9
KESQSVLYESRNKNSVA,WASTRES,QPYHRLPLS,no signal,0/3,0/9
KSSQSVLYETRNKNSVA,WASTRES,QIYHRLPFS,3.85,2/3,3/9
KSSQSVLVESRNKNSVA,WASTREC,QQYHRLPLH,2.14,3/3,4/9
KTSQSVLCESRNKNSVA,WASTRES,QQYHRLPLQ,1.32,3/3,0/9
KSSNSFLYESRNKMSVA,WASTRES,QQYHRLPLS,no signal,0/3,0/9
KSSQSVLYEFRNKNSVA,WASTRES,QQYHRLVLS,3.15,3/3,2/9
ASSQSVLYESRMKNSVA,WASTRES,QQYHRPPLS,2.11,3/3,3/9
KSNQSVLYESRNKNVVA,WASTRES,QQQHRLPLS,4.43,1/3,3/9
GSSQSVLYESRNKPIVA,WASTRES,QQYHRLPLS,no signal,0/3,0/9
KSSQSALYESRNKNSVA,LASERES,QQYHRLPLS,0.79,3/3,0/9
KSSQSVLTESRNKNSVA,WASTRES,QNYHRLPNS,0.28,3/3,0/9
KSSQSVLCESRNKNSVA,WASTYES,QQYHRLPLF,no signal,0/3,3/9
KHSQSTLYESRNKNSVA,WASTRES,QQYHRLPLG,no signal,0/3,1/9
KSSQSVLYAVRNKNSVA,WASTRAS,QQYHRLPLS,1.90,3/3,1/9
KSSQSVLEESRNKNSVA,MASTRES,QQYHRMPLS,0.41,3/3,2/9
KSSQSVLYESRNANSVA,WAATRES,QQYHRLPES,3.67,2/3,1/9
KSSQSVLYYSRNKNSVA,WASTRES,QQYVRLFLS,no signal,0/3,1/9
KSSQSVLYESRNTNSVA,WASTRES,QQYCRLPLS,1.39,3/3,0/9
KSSQSVLYESRNKNPVA,WASTWES,QQYHRLPLS,3.71,1/3,1/9
KSSQSVLYESRNKNSVA,WCSTRES,QQNHRLPRS,3.22,2/3,1/9
KSSQSVLYESRNKNSVA,WWSTRES,QWYHRTPLS,3.86,1/3,1/9
KSSASVLYKSRNKNSVQ,WASTRES,QQYHRLPLS,4.49,2/3,2/9
KSSLSVLPESRNKNSVA,WASTRES,SQYHRLPLS,2.12,3/3,0/9
KSSQSVLYESRNKNWVA,WAMTRES,QQYHMLPLS,4.32,2/3,1/9

Further variants, results first:

"mean, log10 nM",detected,signal with controls,CDR-L1,CDR-L2,CDR-L3
no signal,0/3,1/9,KSSQSVLYEMRNKNSVN,WASTRES,QQYHRCPLS
3.51,1/3,1/9,KSSQSVLYESRNPNSVA,WRSTRES,QQYHRSPLS
no signal,0/3,1/9,KSSQSVLIESRYKNSVA,WASKRES,QQYHRLPLS
4.35,1/3,1/9,KSSQSVIYESRNKNSVA,VASTRES,QQYRRLPLS
1.80,3/3,0/9,KSSQSNLYESRNKNSVA,WASQRES,QQYHRLFLS
no signal,0/3,2/9,KSSQSVLYEVRNKNSVA,WASTTES,QQYHRLPLS
no signal,0/3,0/9,KSSQSVLYESFSKNSVI,WASTRES,QQYHRLPLS
no signal,0/3,1/9,KSSQSVYYESRNKNSVA,WAWTREK,QQYHRLPLS
4.03,3/3,4/9,KSLQSVLYESRNKNSVA,WASTRES,FQYTRLPLS
1.10,3/3,0/9,CSSQSVLYESRNKNSVA,HASTRES,KQYHRLPLS
3.76,2/3,0/9,KNSQSVLYHSRNKNSVA,WASTRES,QQYRRLPLS
no signal,0/3,0/9,KSSQSVLYESVNKNSVY,WASTREV,QQYHRLPLS
3.60,1/3,3/9,YSSQSVLYESRNKNSVA,WASTPES,QQAHRLPLS
no signal,0/3,1/9,KSSQNVLYETRNKNSRA,WASTRES,QQYHRLPLS
no signal,0/3,0/9,KSSQSVLYECRNKNMVA,WASTRES,QGYHRLPLS
no signal,0/3,1/9,KSSQSVLYESRNKNSVA,WISQREF,QQYHRLPLS
no signal,0/3,0/9,KSSQSCLYESRTKNSVA,WASTRES,QQYHRLPLF
3.21,3/3,0/9,KSSQSVLYSSRNKNSVA,VASTRES,QCYHRLPLS
2.63,3/3,0/9,KSSQSVLYEQRNKNSVA,CASTRES,QQYHYLPLS
0.59,3/3,1/9,KSGQSVLYEDRNKNSVA,FASTRES,QQYHRLPLS
2.72,3/3,2/9,KSSQNVLYESANKNSVA,WALTRES,QQYHRLPLS
3.54,2/3,0/9,KSSQSVLSESRNKQSVA,WASTMES,QQYHRLPLS
3.94,3/3,2/9,KSSQSVLYISRNKNSVA,WAVTRNS,QQYHRLPLS
no signal,0/3,0/9,KSSQSVLYESENKNEVA,WASTRES,QQYHRLPLS
3.05,3/3,2/9,KRSQSVLYESRNKNSVA,WASTREN,QQYHRLPLS
4.22,2/3,2/9,KSSQSVLKESRNKNSVA,WASHRES,QLYHRLPLS
3.45,2/3,2/9,KSSQSVLYESCNKNSVA,WKSTREM,QQYHRLPLS
0.70,3/3,1/9,KSSQSVLYGSRNKNSVA,QASTRES,QCYHRLPLS
3.55,1/3,1/9,KSSQSVLYYSRNKNSFA,WASTRES,QQYQRLPLS
4.90,1/3,1/9,KSSFSVLYESRNKNSTA,WASTRES,QQYHRLPLS
2.38,3/3,1/9,KSSQSVLYESRNKNSVA,WASSREC,QQYHRLPGS
1.70,3/3,2/9,KSGQKVLYESRNKNSVA,WASTRES,QQYHRLTLS
0.27,3/3,2/9,KWSQSMLYESRNKNSVA,SASTRES,QQYHRLPLS
no signal,0/3,0/9,KSAQSVLYESRNKNVVA,WASTRES,QQYHRLPPS
4.32,1/3,4/9,KSSQSVLYESRNKNSVA,VASWRES,QPYHRLPLS
no signal,0/3,1/9,KSSQSVLYESRNTNSVA,WASTRES,QQYHRRTLS
no signal,0/3,0/9,KRSNSVLYESRNKNSVA,WASTWES,QQYHRLPLS
2.75,3/3,1/9,KSSQSVLYEQRNKNYVA,WASTREE,QQYHRLPLS
0.94,3/3,1/9,KSSQSVLYESSNKNSVA,WASTRES,QQWHRLPLS
2.05,3/3,1/9,KSSQSVLYESRNKHSVA,WASTRES,QFYHRLPLS

Excerpt, the final 13 entries:

CDR-L1	CDR-L2	CDR-L3	mean, log10 nM	detected	signal with controls
KSSQSVLYGSRNKNSVA	QASTRES	QCYHRLPLS	0.70	3/3	1/9
KSSQSVLYYSRNKNSFA	WASTRES	QQYQRLPLS	3.55	1/3	1/9
KSSFSVLYESRNKNSTA	WASTRES	QQYHRLPLS	4.90	1/3	1/9
KSSQSVLYESRNKNSVA	WASSREC	QQYHRLPGS	2.38	3/3	1/9
KSGQKVLYESRNKNSVA	WASTRES	QQYHRLTLS	1.70	3/3	2/9
KWSQSMLYESRNKNSVA	SASTRES	QQYHRLPLS	0.27	3/3	2/9
KSAQSVLYESRNKNVVA	WASTRES	QQYHRLPPS	no signal	0/3	0/9
KSSQSVLYESRNKNSVA	VASWRES	QPYHRLPLS	4.32	1/3	4/9
KSSQSVLYESRNTNSVA	WASTRES	QQYHRRTLS	no signal	0/3	1/9
KRSNSVLYESRNKNSVA	WASTWES	QQYHRLPLS	no signal	0/3	0/9
KSSQSVLYEQRNKNYVA	WASTREE	QQYHRLPLS	2.75	3/3	1/9
KSSQSVLYESSNKNSVA	WASTRES	QQWHRLPLS	0.94	3/3	1/9
KSSQSVLYESRNKHSVA	WASTRES	QFYHRLPLS	2.05	3/3	1/9

Background: pairings of library AAYL50 with three empty control strains gave a value in 18% of cases (median 4.19, 5th percentile 2.99). Values in that range, when seen in few replicates, are hard to tell from nonspecific mating. For each scFv, signals with the empty controls are counted beside the result.